Values of other authors, collected in PMC6804113, “Cyclic Peptides Acting as Allosteric Inhibitors of Human Thymidylate Synthase and Cancer Cell Growth” (Molecules, 2019).

Key:
C13 cells = details: cited from earlier work
hTS = system: hTS; design: method as in PMID 27250901; details: lysates of HEK293T cells; ref [19]; cited from earlier work

Leu-Ser-Cys-Gln-Leu-Tyr-Gln-Arg (LSCQLYQR; printed: Leu-Ser-Cys-Gln-Leu-Tyr-Gln-Arg) [LR]
intracellular concentration relative to extracellular concentration (C13 cells): 15 times
concentration of peptide bound to hTS (hTS): 2.5 µmol/L
concentration of peptide interacting with other targets (hTS): 30 nmol/L
